In ChEMBL document CHEMBL3872253, “Synthesis and in vitro antiproliferative activity of C5-benzyl substituted 2-amino-pyrrolo[2,3-d]pyrimidines as potent Hsp90 inhibitors” (Bioorg Med Chem Lett, 2017) one finds GI50 data, which are given here for one compound.

This assay can be described thus: cells. As to conditions: Homo sapiens, NCI-H322M, 48 h.

What is called GI50 is the concentration at which growth is held to half of that of the control. Lower therefore signals more potent growth inhibition. For `CC(C)NCCCn1c(Sc2cc3c(cc2I)OCO3)nc2c(N)ncnc21` [PU-H71], the GI50 was 170 nM.
